One data set relates to doxorubicin treated mice. Briefly: Echocardiography of doxorubicin and doxorubicin+lapatinib treated mice. To be noted: seven weeks after the completion of the doxorubicin treatment; FIG. 2; vs untreated controls.
The test system of data set [1] is doxorubicin+BEZ235 treated mice. Format: in vivo. To be noted: doxorubicin+BEZ235+lapatinib (25, 50 or 100 mg/kg oral daily) versus doxorubicin+BEZ235 treated mice; FIG. 5.

As for `COc1cccc2c1C(=O)c1c(O)c3c(c(O)c1C2=O)C[C@@](O)(C(=O)CO)C[C@@H]3O[C@H]1C[C@H](N)[C@H](O)[C@H](C)O1` [doxorubicin], in the data set on doxorubicin treated mice, the “ejection fraction (EF %)” value was “decreased” and the “end-systolic volume (ESV)” value was “increased”.
On to `CS(=O)(=O)CCNCc1ccc(-c2ccc3ncnc(Nc4ccc(OCc5cccc(F)c5)c(Cl)c4)c3c2)o1` [lapatinib, N-[3-chloro-4-[(3-fluorophenyl)methoxy]phenyl]-6-[5-[(2-methylsulfonylethylamino)methyl]-2-furyl]quinazolin-4-amine], for which, in data set [1], the survival result is listed as “significantly improved”.

(Values after patent US9119858B2, “Compositions and methods for treating or preventing anthracycline induced cardiotoxicity” (Genesys Research Institute, priority 2012, dated 2015).)
